The subject of this assay is 5-HT. Nature of the assay: Microdialysis assays of monoamines: 5-HT level in hypothalamus dialysate of conscious rats. Type of assay: in vivo, Sprague-Dawley rats. The note with it: Test 2, average of three or more animals. On the procedure:
The tests were carried out as follows.
Sprague-Dawley rats (Harlan or Charles River) weighing 270-300 grams were surgically implanted with microdialysis probes under chloral hydrate/pentobarbital anesthesia (170 and 36 mg/kg i.p. in 30% propylene glycol, 14% ethanol) (Perry and Fuller, Effect of fluoxetine on serotonin and dopamine concentration in rat hypothalamus after administration of fluoxetine plus L-5-hydroxytryptophan, Life Sci., 50, 1683-90 (1992)). A David Kopf stereotaxic instrument was used to implant the probe unilaterally in the hypothalamus at coordinates rostral -1.5 mm, lateral -1.3 mm, and ventral -9.0 mm (Paxinos and Watson, 1986). After a 48 hour recovery period, rats were placed in a large plastic bowl with a mounted liquid swivel system (CMA/120 system for freely moving animals, Bioanalytical Systems, West Lafayette, IN). Filtered artificial cerebrospinal fluid (CSF) (150 mM NaCl, 3.0 mM KCl, 1.7 mM CaCl2, and 0.9 mM MgCl2) was perfused through the probe at a rate of 1.0 µl/min. The output dialysate line was fitted to a tenport HPLC valve with a 20 µl loop. At the end of each 30 minute sampling period, dialysate collected in the loop was injected on an analytical column (Spherisorb 3 µ ODS2, 2X150 mm, Keystone Scientific).
The method used to measure monoamines was as described by Perry and Fuller (1993). Briefly, dialysate collected in the 20 µl loop was assayed for 5-HT, NE and DA. The 20 µl injection went onto the column with a mobile phase which resolved NE, DA, and 5-HT: 75 mM potassium acetate, 0.5 mM ethylenediaminetetraacetic acid, 1.4 mM sodium octanesulfonic acid and 8% methanol, pH 4.9. The mobile phase for the amine column was delivered with a flow programmable pump at an initial flow rate of 0.2 ml/min increasing to 0.3 ml/min at 5 min then decreasing back to 0.2 ml/min at 26 min with a total run time of 30 min. Flow programming was used to elute the 5-HT within a 25 min time period. The electrochemical detector (EG&G, Model 400) for the amine column was set at a potential of 400 mV and a sensitivity of 0.2 nA/V. The data was collected and analyzed with a Hewlett-Packard HP1000 chromatography system which measured peak heights and calculated sample concentrations. Basal levels were measured for at least 90 minutes prior to drug administration.
Extracellular levels of the amines in microdialysates were calculated by comparing peak heights with those of 50 pmole standards. The mean value of the four samples immediately preceding drug administration served as the basal level for each experiment and data was converted to percent of basal. Paired t-tests were used to compare the mean of the basal values from the time point immediately preceding drug administration to those of each time point thereafter. […]

In the case of `CC(C)NCC(O)COc1cccc2[nH]ccc12` (single isomer, unassigned; (-)) [(-)-pindolol, 4-(2-hydroxy-3-isopropylaminopropoxy)-indole], the “5-HT, percent of baseline” value is listed as 80% (120 min (time of first (-)-pindolol dose, 5 mg/kg)); 90% (150 min, (-)-pindolol 5 mg/kg at 120 min); 110% (180 min, (-)-pindolol 5 mg/kg at 120 min); 100% (210 min, (-)-pindolol 5 mg/kg at 120 min).

Values taken from patent EP0792649A1, “Treatment of sleep disorders” (ELI LILLY AND COMPANY, priority 1996, dated 1997).
